Laboratory results published in publication PMC5805504 (Oncotarget, 2017).

Assays:
[1] = tested on: NIH3T3 fibroblasts (TGFβ1 induced proliferation); experiment: cells; details: Mus musculus, NIH3T3, read-out: IC50 (SE), NIH3T3 proliferation: TGF-β-stimulated
[2] = tested on: NIH3T3 fibroblasts (TGFβ1 induced proliferation); details: read-out: IC50 (SE), NIH3T3 proliferation: TGF-β-stimulated
[3] = tested on: NIH3T3 fibroblasts (PDGF stimulated proliferation); experiment: cells; details: Mus musculus, NIH3T3, read-out: IC50 (SE), NIH3T3 proliferation: PDGF-stimulated
[4] = tested on: pSMAD in EMT6-LM2 tumors; experiment: animal or person; details: Mus musculus, po, read-out: TEC50, total effective (plasma) concentration to inhibit 50% pSMAD
[5] = tested on: pSMAD in Calu6 tumors; experiment: animal or person; details: Mus musculus, Calu-6, po, read-out: TEC50, total effective (plasma) concentration to inhibit 50% pSMAD
[6] = tested on: pSMAD in Calu6 and EMT6-LM2 tumors; experiment: PK/PD profile from Calu6 and EMT6-LM2 in vivo target inhibition studies (statements not split by model); design: species or system mice; details: from dose response analysis; Cmax target plasma concentration
[7] = tested on: NIH3T3 fibroblasts (bFGF stimulated proliferation); experiment: cells; details: Mus musculus, NIH3T3, read-out: IC50 (SE), NIH3T3 proliferation: bFGF-stimulated
[8] = tested on: Mv1Lu cells; experiment: cells; details: read-out: IC50 (SE), Mv1Lu proliferation

Cc1cccc(-c2nn3c(c2-c2ccnc4ccc(C(N)=O)cc24)CCC3)n1.O [galunisertib, 4-[2-(6-methylpyridin-2-yl)-5,6-dihydro-4H-pyrrolo[1,2-b]pyrazol-3-yl]quinoline-6-carboxamide monohydrate]
IC50 [1]: 396 nM
IC50 [2]: 400 nM
IC50 [3]: > 20000 nM
EC50 [4]: 340 nM
EC50 [5]: 300 nM
estimated plasma concentration for maximal target inhibition in vivo [6]: 3 to 6 µM
IC50 [7]: > 20000 nM
IC50 [8]: 560 nM

Like-named read-outs stand apart in the source and are kept apart here.
